Consider one molecule from ChEMBL document CHEMBL1150317, “Discovery of aryl aminoquinazoline pyridones as potent, selective, and orally efficacious inhibitors of receptor tyrosine kinase c-Kit” (J Med Chem, 2008).

Protein sequences, listed by entry. Tags and fused reporters are not part of them.
UniProt P35968, whole entry: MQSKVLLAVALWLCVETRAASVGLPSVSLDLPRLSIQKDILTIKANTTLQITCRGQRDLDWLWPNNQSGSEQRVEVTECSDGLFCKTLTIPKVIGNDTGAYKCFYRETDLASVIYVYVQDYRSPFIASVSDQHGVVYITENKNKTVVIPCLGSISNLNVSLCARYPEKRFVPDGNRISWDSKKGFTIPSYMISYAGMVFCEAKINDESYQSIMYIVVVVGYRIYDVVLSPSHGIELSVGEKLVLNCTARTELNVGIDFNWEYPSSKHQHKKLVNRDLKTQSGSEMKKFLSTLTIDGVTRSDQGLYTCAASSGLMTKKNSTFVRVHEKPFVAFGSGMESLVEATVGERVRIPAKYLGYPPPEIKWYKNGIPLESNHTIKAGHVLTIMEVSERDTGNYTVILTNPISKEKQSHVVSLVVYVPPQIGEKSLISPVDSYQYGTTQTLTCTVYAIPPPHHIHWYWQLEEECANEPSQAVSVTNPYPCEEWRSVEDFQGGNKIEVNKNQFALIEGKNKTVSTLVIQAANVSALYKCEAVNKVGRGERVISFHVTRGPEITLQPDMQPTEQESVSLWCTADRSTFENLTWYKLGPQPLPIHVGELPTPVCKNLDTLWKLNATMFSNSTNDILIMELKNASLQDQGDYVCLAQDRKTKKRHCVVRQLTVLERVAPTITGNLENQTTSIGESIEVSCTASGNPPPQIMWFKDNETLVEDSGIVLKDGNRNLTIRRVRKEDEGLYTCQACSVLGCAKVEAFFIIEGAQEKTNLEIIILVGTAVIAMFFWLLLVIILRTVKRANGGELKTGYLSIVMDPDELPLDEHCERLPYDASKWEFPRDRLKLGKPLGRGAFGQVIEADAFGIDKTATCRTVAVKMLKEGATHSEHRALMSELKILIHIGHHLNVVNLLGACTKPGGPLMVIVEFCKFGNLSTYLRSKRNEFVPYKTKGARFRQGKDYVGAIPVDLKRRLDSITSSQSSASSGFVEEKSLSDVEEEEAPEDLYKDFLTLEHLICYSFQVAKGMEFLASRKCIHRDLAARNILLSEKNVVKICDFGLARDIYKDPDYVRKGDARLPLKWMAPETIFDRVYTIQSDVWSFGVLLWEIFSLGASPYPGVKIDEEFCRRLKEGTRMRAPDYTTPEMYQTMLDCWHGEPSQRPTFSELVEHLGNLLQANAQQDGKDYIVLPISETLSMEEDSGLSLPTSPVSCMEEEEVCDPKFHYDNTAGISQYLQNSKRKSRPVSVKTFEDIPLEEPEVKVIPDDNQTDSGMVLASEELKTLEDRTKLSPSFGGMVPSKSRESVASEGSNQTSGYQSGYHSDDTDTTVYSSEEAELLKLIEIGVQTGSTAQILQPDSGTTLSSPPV

This assay deals with Vascular endothelial growth factor receptor 2 (Homo sapiens, UniProt P35968).

As a reminder, the IC50 is the concentration needed to halve the response being measured. Low values mean greater potency in that assay, high ones weaker potency in that assay.

The molecule `Cc1ccn(-c2ccc3c(c2)NCC3(C)C)c(=O)c1-c1ccc2nc(N)ncc2c1` gave an IC50 of 0.048 µM.
